We go through one compound from ChEMBL document CHEMBL3407465, “Interaction of human organic anion transporter polypeptides 1B1 and 1B3 with antineoplastic compounds” (Eur J Med Chem, 2015).

Protein sequences, listed by entry. Tags and fused reporters are not part of them. Lines headed by an entry give the natural chain unless they say otherwise; changes in a name come on top.
UniProt Q9Y6L6: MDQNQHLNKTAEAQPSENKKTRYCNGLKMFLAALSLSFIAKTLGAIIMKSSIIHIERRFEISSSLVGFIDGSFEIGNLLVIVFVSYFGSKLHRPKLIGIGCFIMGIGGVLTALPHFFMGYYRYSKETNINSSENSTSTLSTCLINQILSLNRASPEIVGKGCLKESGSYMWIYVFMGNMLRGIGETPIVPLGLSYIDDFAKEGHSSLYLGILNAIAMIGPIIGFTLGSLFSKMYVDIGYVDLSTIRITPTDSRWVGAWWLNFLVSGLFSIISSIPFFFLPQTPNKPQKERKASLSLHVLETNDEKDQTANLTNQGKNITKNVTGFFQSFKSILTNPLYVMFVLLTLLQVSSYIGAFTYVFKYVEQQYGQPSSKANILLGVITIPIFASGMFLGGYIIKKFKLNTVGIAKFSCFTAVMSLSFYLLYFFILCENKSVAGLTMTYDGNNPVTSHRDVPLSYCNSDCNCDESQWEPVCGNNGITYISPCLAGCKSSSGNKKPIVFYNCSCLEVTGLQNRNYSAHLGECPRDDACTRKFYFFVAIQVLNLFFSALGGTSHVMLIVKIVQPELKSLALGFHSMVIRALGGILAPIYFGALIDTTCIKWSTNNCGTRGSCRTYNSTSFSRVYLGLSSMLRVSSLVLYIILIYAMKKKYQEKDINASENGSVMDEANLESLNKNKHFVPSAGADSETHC

The target of this data set is Solute carrier organic anion transporter family member 1B1 (Homo sapiens, UniProt Q9Y6L6). As to the kind of experiment: Stimulation of human OATP1B1-mediated [3H]estrone 3-sulfate at 100 uM after 5 mins relative to control.

In the case of `O=P1(N(CCCl)CCCl)OCCCN1CCCl` (stereo unspecified), the Activity was 13.1%.
